Values quoted from earlier work, collected in patent US20250236608A1, “EGFR INHIBITORS” (Blueprint Medicines Corporation, priority 2022, published 2025).

Test system: EGFR mutant NSCLC
Conditions: EGFR M+ NSCLC patients treated first line (1 L); cited from earlier work

## COc1cc2ncnc(Nc3ccc(F)c(Cl)c3)c2cc1OCCCN1CCOCC1 [gefitinib]
  objective response rate (ORR): 60-85%
